# Patent US7728037B2, “Alpha-ketoglutarates of active ingredients and compositions containing same” (Sigma-Tau Industrie Farmaceutiche Riunite S.p.A., priority 2001, dated 2010)
# Test: Absorption tests: L-carnitine assay on blood samples after oral administration
# From the text: For these tests a batch of male Sprague Dawley rats with a mean body weight of 250 g was used.
# [1] = rats fasted 24 h, oral 1 g/kg L-carnitine alpha-ketoglutarate or equimolar dose, blood sampled at 1, 2 and 4 hours
substance,measurement,setting,value
L-carnitine alpha-ketoglutarate,absorption (in words),"oral, rats",well absorbed
same,peak L-carnitine blood concentration,[1],166.5 ± 20.1 nmol/L
same,time at which L-carnitine concentrations reached their peak,[1],1 h
